Experimental data as given in article PMC8274477 (Frontiers in Cell and Developmental Biology, 2021).

Target: T1, OTULIN (OTU deubiquitinase with linear linkage specificity, FAM105B), His-tagged, biotin-labelled (human, biotin (label; sites not stated))
T1 construct: OTULIN (FAM105B), cDNA in pET28a; also called HIS-OTULIN; source: E. coli BL21 (DE3), purified (His-tag Purification Resin), labelled with biotin; not shown: His6, N-terminal, kept
Test: peptide or protein array; HuProt human proteome microarray; 5 ug/5 ml biotin-labelled LUBAC or OTULIN in solution, 1 h at room temperature; Cy5-streptavidin, scanned at 635 nm; BSA as negative control; hits: Z-score >= 3 and I_(Mean_Ratio) >= 1.4
Details: both partners purified

binding result: binds
B1: FAM103A1 (natural protein, human, UniProt Q9BTL3 1-118, looked up)
chain: MTDTAEAVPKFEEMFASRFTENDKEYQEYLKRPPESPPIVEEWNSRAGGNQRNRGNRLQDNRQFRGRDNRWGWPSDNRSNQWHGRSWGNNYPQHRQEPYYPQQYGHYGYNQRPPYGYY
notes: FAM103A1; protein on the human proteome microarray; source: spotted on the HuProt human proteome microarray
